In the assay the target is Urease (Helicobacter pylori) (UniProt Q0PXQ5). Nature of the assay: Inhibition of Campylobacter pylori urease preincubated for 5 mins followed by urea addition measured after 10 mins by Berthelot assay relative to control. Also noted: concentration or dose not given beside the values.

For `NC(N)=S` [THIOUREA], the inhibition (in general, the drop in the measured response relative to a control, in per cent) was found to be 98.1%.

These data come from ChEMBL document CHEMBL4118270, “Synthesis, in vitro and in silico studies of novel potent urease inhibitors: N-[4-({5-[(3-Un/substituted-anilino-3-oxopropyl)sulfanyl]-1,3,4-oxadiazol-2-yl}methyl)-1,3-thiazol-2-yl]benzamides” (Bioorg Med Chem, 2018).
